System: hypersensitivity following acute fentanyl exposure
Conditions: rat, in vivo

O=C(c1ccccc1)c1ccc2n1CCC2C(=O)O (centres unmarked) [ketorolac]
dose dependence (two-way repeated measures ANOVA): dose-dependent effect
duration of increased withdrawal threshold after injection: 30 to 60 min

Source: patent publication US20030181426A1, “Compositions and methods for treating pain using cyclooxygenase-1 inhibitors” (priority 2002, published 2003)
